System: Mus musculus
Test: Antinociceptive activity in thermal stimulated sc dosed C57BL/6 mouse measured at 30 to 180 mins by tail flick test
Format: functional
Conditions: time 30-180 min

Q: How did the Activity turn out when `CN1CC[C@]23c4c5ccc(O)c4O[C@H]2[C@@H](O)C=C[C@H]3[C@H]1C5` was run?
A: Its Activity is “Dose-Dependent Effect”.

Reference: ChEMBL document CHEMBL5352416, “Benzo[b]thiophene-2-carboxamides as novel opioid receptor agonists with potent analgesic effect and reduced constipation” (Eur J Med Chem, 2022)
